Data reported in patent publication US20250195485A1, “PROPIONIC ACID DERIVATIVE AND MEDICAL USE THEREOF” (Xizang Haisco Pharmaceutical Co., Ltd., priority 2021, published 2025).

Sequences of proteins named here, by UniProt entry; tags and fusion partners are left off. Residues count along the entry.
UniProt P13612, 34-1032 limits assumed: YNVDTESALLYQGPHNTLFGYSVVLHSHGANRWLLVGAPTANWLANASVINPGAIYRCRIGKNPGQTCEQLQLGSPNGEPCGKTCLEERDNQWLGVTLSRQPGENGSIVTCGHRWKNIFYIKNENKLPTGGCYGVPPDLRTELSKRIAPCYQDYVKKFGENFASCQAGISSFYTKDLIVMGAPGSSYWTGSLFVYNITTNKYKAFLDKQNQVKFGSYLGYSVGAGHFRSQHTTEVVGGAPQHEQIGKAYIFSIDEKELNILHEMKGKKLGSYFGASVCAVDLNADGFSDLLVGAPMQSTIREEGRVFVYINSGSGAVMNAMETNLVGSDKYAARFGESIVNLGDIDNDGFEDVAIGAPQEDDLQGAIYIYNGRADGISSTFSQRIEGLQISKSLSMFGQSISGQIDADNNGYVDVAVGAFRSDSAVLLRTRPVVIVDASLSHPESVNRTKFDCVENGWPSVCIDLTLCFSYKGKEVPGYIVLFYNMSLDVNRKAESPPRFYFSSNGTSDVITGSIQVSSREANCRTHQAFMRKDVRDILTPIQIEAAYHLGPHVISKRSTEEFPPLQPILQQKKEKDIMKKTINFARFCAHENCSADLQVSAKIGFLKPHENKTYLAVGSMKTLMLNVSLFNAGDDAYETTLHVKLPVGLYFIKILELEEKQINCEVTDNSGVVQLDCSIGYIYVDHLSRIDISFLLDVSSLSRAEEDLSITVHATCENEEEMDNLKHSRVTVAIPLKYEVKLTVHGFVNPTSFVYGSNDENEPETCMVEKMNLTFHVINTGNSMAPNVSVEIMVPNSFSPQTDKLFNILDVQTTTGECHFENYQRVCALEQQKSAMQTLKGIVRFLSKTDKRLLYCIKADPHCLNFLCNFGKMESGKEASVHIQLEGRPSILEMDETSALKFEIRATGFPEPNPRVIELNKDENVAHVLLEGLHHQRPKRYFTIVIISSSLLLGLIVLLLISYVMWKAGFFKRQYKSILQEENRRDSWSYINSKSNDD
UniProt P26010, 20-798 limits assumed: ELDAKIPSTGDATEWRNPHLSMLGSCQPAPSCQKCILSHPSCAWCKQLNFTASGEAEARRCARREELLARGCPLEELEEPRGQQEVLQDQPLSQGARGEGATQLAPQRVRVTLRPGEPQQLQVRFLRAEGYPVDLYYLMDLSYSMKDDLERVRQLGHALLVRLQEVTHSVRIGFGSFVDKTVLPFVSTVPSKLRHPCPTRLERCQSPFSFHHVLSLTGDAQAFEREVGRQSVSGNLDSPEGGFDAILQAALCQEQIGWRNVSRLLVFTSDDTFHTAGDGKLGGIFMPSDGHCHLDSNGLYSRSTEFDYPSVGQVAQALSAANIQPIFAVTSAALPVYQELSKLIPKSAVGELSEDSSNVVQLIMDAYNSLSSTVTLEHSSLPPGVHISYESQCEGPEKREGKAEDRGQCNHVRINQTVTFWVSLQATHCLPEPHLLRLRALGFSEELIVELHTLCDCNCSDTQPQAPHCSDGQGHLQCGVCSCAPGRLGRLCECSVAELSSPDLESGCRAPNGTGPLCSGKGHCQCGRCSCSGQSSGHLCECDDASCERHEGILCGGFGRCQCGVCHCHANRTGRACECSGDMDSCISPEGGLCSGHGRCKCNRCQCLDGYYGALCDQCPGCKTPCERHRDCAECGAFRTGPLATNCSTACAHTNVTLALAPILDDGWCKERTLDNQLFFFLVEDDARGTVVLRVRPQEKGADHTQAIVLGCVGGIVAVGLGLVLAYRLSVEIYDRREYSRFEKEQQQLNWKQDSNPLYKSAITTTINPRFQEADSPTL
UniProt P05556, 21-798 limits assumed: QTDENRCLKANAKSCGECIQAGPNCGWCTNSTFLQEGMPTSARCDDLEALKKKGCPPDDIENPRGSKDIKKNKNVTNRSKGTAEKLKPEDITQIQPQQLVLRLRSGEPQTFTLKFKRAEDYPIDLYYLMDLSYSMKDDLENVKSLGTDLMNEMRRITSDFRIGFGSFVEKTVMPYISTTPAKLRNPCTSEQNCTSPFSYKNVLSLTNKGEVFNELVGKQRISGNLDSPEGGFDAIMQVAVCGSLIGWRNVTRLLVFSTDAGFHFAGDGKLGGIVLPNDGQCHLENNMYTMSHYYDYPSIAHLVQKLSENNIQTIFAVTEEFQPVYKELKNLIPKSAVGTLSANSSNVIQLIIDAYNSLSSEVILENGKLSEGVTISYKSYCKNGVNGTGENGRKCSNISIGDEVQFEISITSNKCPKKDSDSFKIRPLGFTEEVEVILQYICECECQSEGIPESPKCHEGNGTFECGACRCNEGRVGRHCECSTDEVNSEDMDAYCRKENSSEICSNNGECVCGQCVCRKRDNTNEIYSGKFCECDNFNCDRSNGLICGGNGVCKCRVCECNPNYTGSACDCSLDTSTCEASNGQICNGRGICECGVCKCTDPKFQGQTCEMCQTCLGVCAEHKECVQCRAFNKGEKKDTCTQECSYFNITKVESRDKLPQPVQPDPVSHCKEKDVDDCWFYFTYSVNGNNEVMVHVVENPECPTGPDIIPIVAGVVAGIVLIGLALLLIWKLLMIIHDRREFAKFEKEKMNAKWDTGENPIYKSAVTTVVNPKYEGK

Columns and labels:
[1] = target: integrin α4β7 (Homo sapiens, UniProt P13612+P26010); experiment: Integrin α4β7-mediated cell adhesion assay (RPM18866 cells on MAdCAM-1); type: cell-based; settings: for IC50: read-out: RPMI-8866 (α4β7)/MadCAM-1 IC50, RPMI-8866 cells adhering to MAdCAM-1; for α4β1/α4β7: selectivity ratio of α4β1 IC50 to α4β7 IC50 in cell adhesion
[2] = target: integrin α4β1 (Homo sapiens, UniProt P05556+P13612); experiment: Integrin α4β1-mediated cell adhesion assay (Jurkat cells on VCAM); type: cell-based; settings: read-out: Jurkat (α4β1)/VCAM-1 IC50, Jurkat cells adhering to VCAM-1
[3] = Pharmacokinetic test in mice; settings: male BALB/c mice; for CL / AUC: plasma, groups: intravenously 1 mg/kg, intragastrically 10 mg/kg (route for this parameter not stated); for AUC: oral absorption results; for F: intragastrically 10 mg/kg vs intravenously 1 mg/kg

SMILES	IC50 ([1]; tested form: TFA)	IC50 [1]	α4β1/α4β7 [1]	IC50 [2]	other results
COc1cc(C)n(C)c(=O)c1-c1cc(C)c(F)c(C(CC(=O)O)NC(=O)C(CC(C)C)n2cc(CCN(C)C)c(C(F)(F)F)cc2=O)c1 (stereo not drawn)		< 0.01 µM			
Cc1cc(F)cc(C)c1-c1cc(C(CC(=O)O)NC(=O)C(CC(C)C)n2cc(CCN(C)C)c(C(F)(F)F)cc2=O)cn2ccnc12 (stereo not drawn)					IC50 ([1]; tested form: ammonium salt): < 0.0005 µM; α4β1/α4β7 ([1]; tested form: ammonium salt): >100; IC50 ([2]; tested form: ammonium salt): 0.00658 µM
Cc1cc(F)cc(C)c1-c1cc(C(CC(=O)O)NC(=O)C(CC(C)C)n2cc(CCN3C[C@@H]4C[C@H]3CO4)c(C(F)(F)F)cc2=O)cc2c1CCC2 (stereo partly drawn)		< 0.0005 µM	>100	0.0256 µM	
Cc1cc(F)cc(C)c1-c1cc(C(CC(=O)O)NC(=O)C(CC(C)C)n2cc(CCn3ccnc3)c(C(F)(F)F)cc2=O)cc2c1CCC2 (stereo not drawn)	< 0.01 µM				
Cc1cc(F)cc(C)c1-c1cc(C(CC(=O)O)NC(=O)C(CC(C)C)n2cc(CCN3C[C@H]4C[C@@H]3CO4)c(C(F)(F)F)cc2=O)cc2c1CCC2 (stereo partly drawn)		< 0.0005 µM	>100	0.0355 µM	
Cc1cc(C)c(-c2cc(C(CC(=O)O)NC(=O)C(CC(C)C)n3cc(CCN4CCC4)c(C(F)(F)F)cc3=O)cn3ccnc23)c(C)c1 (stereo not drawn)	< 0.01 µM				
Cc1cc(C=C(F)F)cc(C)c1-c1cc(C(CC(=O)O)NC(=O)C(CC(C)C)n2cc(CCN(C)C)c(C(F)(F)F)cc2=O)cc2c1CCC2 (single isomer, unassigned) [Compound 43-2]		< 0.0005 µM	>90	0.0343 µM	CL [3]: 41.6 mL/min/kg; AUC [3]: 1938 ng·h/mL; F [3]: 47.1%
C#Cc1ncc(C(CC(=O)O)NC(=O)C(CC(C)C)n2ccc(C)cc2=O)cc1-c1c(C)cccc1C (stereo not drawn)	< 0.0005 µM				
Cc1ccn(C(CC(C)C)C(=O)NC(CC(=O)O)c2cc(-c3c(C)cccc3C)c3nccn3c2)c(=O)c1 (stereo not drawn)	< 0.01 µM				
Cc1cc(F)cc(C)c1-c1cc(C(CC(=O)O)NC(=O)C(CC(C)C)n2cc(CCN3CCCOCC3)c(C(F)(F)F)cc2=O)cc2c1CCC2 (stereo not drawn)	< 0.0005 µM				α4β1/α4β7 ([1]; tested form: TFA): >500; IC50 ([2]; tested form: TFA): 0.128 µM
Cc1cc(C=C(F)F)cc(C)c1-c1cc(C(CC(=O)O)NC(=O)C(CC(C)C)n2cc(CCN(C)C)c(C(F)(F)F)cc2=O)cc2c1CCC2 (single isomer, unassigned) [Compound 43-1]		< 0.02 µM		> 4 µM	
Cc1cc(F)cc(C)c1-c1cc(C(CC(=O)O)NC(=O)C(CC(C)C)n2cc(CCN3CCC3)c(C(F)(F)F)cc2=O)cc2nccn12 (stereo not drawn)		< 0.0005 µM			
Cc1cc(F)cc(C)c1-c1cc(C(CC(=O)O)NC(=O)C(CC(C)C)n2cc(CCN3CCC4(CC4)C3)c(C(F)(F)F)cc2=O)cc2c1CCC2 (stereo not drawn)		< 0.0005 µM			
Cc1cc(F)cc(C)c1-c1cc(C(CC(=O)O)NC(=O)C(CC(C)C)n2cc(CCN3CC4CCC(C3)N4C)c(C(F)(F)F)cc2=O)cc2c1CCC2 (stereo not drawn)	< 0.0005 µM				α4β1/α4β7 ([1]; tested form: TFA): >100; IC50 ([2]; tested form: TFA): 0.041 µM
Cc1cc(F)cc(C)c1-c1cc(C(CC(=O)O)NC(=O)C(CC(C)C)n2cc(CCN(C)C3CC3)c(C(F)(F)F)cc2=O)cc2c1CCC2 (stereo not drawn)		< 0.01 µM			
Cc1ccn(C(CC(C)C)C(=O)NC(CC(=O)O)c2cc(-c3c(C)cccc3C)nc(C)c2F)c(=O)c1 (stereo not drawn)					IC50 ([1]; tested form: ammonium salt): < 0.01 µM
Cc1cc(F)cc(C)c1-c1cc(C(CC(=O)O)NC(=O)C(CC(C)C)n2cc(CCN3CCC3)c(C(F)(F)F)cc2=O)cn2ccnc12 (stereo not drawn)		< 0.0005 µM			
COc1ncc(C(CC(=O)O)NC(=O)C(CC(C)C)n2ccc(C)cc2=O)cc1-c1c(C)cccc1C (stereo not drawn)	< 0.01 µM				
Cc1cccc(C)c1-c1cc(C(CC(=O)O)NC(=O)C(CC(C)C)n2cc(CCN3CC(F)C3)cc(F)c2=O)cc2nccn12 (stereo not drawn)		< 0.0005 µM	>100	0.0347 µM	
COCC1CN(CCc2cc(F)c(=O)n(C(CC(C)C)C(=O)NC(CC(=O)O)c3cc(-c4c(C)cccc4C)cc(C)c3F)c2)C1 (stereo not drawn)		< 0.01 µM			
Cc1cc(-c2c(C)cc(F)cc2C)cc(C(CC(=O)O)NC(=O)C(CC(C)C)n2cc(C3CCN(C)CC3)c(C(F)(F)F)cc2=O)c1F (stereo not drawn)		< 0.0005 µM	>100	0.00386 µM	

More lines, main results first:

IC50 ([1]; tested form: TFA)	IC50 [1]	α4β1/α4β7 [1]	IC50 [2]	SMILES	other results
< 0.0005 µM				C#Cc1ncc(C(CC(=O)O)NC(=O)C(CC(C)C)n2cc(CCN(C)C)c(C(F)(F)F)cc2=O)cc1-c1c(C)cccc1C (stereo not drawn)	α4β1/α4β7 ([1]; tested form: TFA): >500; IC50 ([2]; tested form: TFA): 0.13 µM
	< 0.0005 µM			Cc1cc(F)cc(C)c1-c1cc(C(CC(=O)O)NC(=O)C(CC(C)C)n2cc(CCN(C)C)c(C(F)(F)F)cc2=O)c2ccccc2c1 (stereo not drawn)	
< 0.0005 µM				CC#Cc1cc(F)c(C(CC(=O)O)NC(=O)C(CC(C)C)n2cc(CCN(C)C)c(C(F)(F)F)cc2=O)c(F)c1-c1c(C)cc(F)cc1C (stereo not drawn)	α4β1/α4β7 ([1]; tested form: TFA): >100; IC50 ([2]; tested form: TFA): 0.00793 µM
< 0.0005 µM				Cc1cc(C)c(-c2cc(C(CC(=O)O)NC(=O)C(CC(C)C)n3cc(CCN(C)C)c(C(F)(F)F)cc3=O)cc3c2CCC3)c(C)c1 (stereo not drawn)	α4β1/α4β7 ([1]; tested form: TFA): >100; IC50 ([2]; tested form: TFA): 0.172 µM
	< 0.0005 µM	>500	0.167 µM	CC#Cc1cc(-c2c(C)cccc2C)c(F)c(C(CC(=O)O)NC(=O)C(CC(C)C)n2cc(CCN(C)C)c(C(F)(F)F)cc2=O)c1F (stereo not drawn)	CL [3]: 17.7 mL/min/kg; AUC [3]: 2506 ng·h/mL
	< 0.0005 µM	>100	0.0547 µM	CC#Cc1cc(-c2c(C)cc(C)cc2C)c(F)c(C(CC(=O)O)NC(=O)C(CC(C)C)n2cc(CCN(C)C)c(C(F)(F)F)cc2=O)c1F (stereo not drawn)	CL [3]: 10.0 mL/min/kg; AUC [3]: 4104 ng·h/mL
< 0.0005 µM				C#Cc1cc(-c2c(C)cc(F)cc2C)c(F)c(C(CC(=O)O)NC(=O)C(CC(C)C)n2cc(CCN(C)C)c(C(F)(F)F)cc2=O)c1F (stereo not drawn)	α4β1/α4β7 ([1]; tested form: TFA): >100; IC50 ([2]; tested form: TFA): 0.066 µM
	< 0.0005 µM			C#Cc1ncc(C(CC(=O)O)NC(=O)C(CC(C)C)n2cc(CCN3CCC3)c(C(F)(F)F)cc2=O)cc1-c1c(C)cc(F)cc1C (stereo not drawn)	
	< 0.0005 µM	>100	0.0668 µM	Cc1cc(F)cc(C)c1-c1cc(C(CC(=O)O)NC(=O)C(CC(C)C)n2cc(CCN(C)C)c(C(F)(F)F)cc2=O)cc2c1CCC2 (stereo not drawn) [Compound 30-2]	
< 0.0005 µM				C#Cc1cc(-c2c(C)cc(F)cc2C)c(F)c(C(CC(=O)O)NC(=O)C(CC(C)C)n2cc(CCN3CCC3)c(C(F)(F)F)cc2=O)c1F (stereo not drawn)	
	< 0.0005 µM	>100	0.0163 µM	C#Cc1ncc(C(CC(=O)O)NC(=O)C(CC(C)C)n2cc(CCN(C)C)c(C(F)(F)F)cc2=O)cc1-c1c(C)cc(F)cc1C (stereo not drawn)	
	< 0.0005 µM	>500	0.0952 µM	Cc1cc(F)cc(C)c1-c1c(F)c(C(CC(=O)O)NC(=O)C(CC(C)C)n2cc(CCN(C)C)c(C(F)(F)F)cc2=O)c(F)c2c1CCC2 (stereo not drawn)	CL [3]: 16.3 mL/min/kg; AUC [3]: 3119 ng·h/mL; F [3]: 30.3%

Read-outs that look alike come from different tables or passages of the source.
